Among the data in patent US4018930A, “Substituted indolobenzazepines” (Endo Laboratories, Inc., priority 1975, dated 1977) are ED50, LD50 and solubility in water values, retold here.

Data set [1] concerns mice. The data set can be described thus: Ptosis (Pto.), primary rodent screen. The class given is in vivo, mouse. As to conditions: po, read-out: Pto. ED50 (ptosis).
For data set [2], the system named is mice. The experiment in a line: Decreased Locomotor Activity (L.M.A.), primary rodent screen. It is filed as in vivo, mouse. Particulars: po, read-out: L.M.A. ED50 (decreased locomotor activity).
The subject of data set [3] is mice. The data set can be described thus: Phenylquinone Writhing (P.Q.W.) test, analgesic activity. It is filed as in vivo, mouse. Particulars: 0.5 h, po, read-out: P.Q.W. ED50 (analgesic ED50). Here is the method: The analgesic activity of the compounds of the present invention is conveniently determined in a phenylquinone writhing test, as described below:
Phenylquinone Writhing (P.Q.W.):
results given in: mg/kg po/mouse
Groups of at least 10 mice are given phenyl-p-benzoquinone 2.5 mg/kg intraperitoneally 30 minutes after oral administration of graded doses of the test substance. Two or more dose levels are used for each compound. For scoring purposes, a "writhe" is defined as stretching, twisting of a hindleg inward, or contraction of the abdomen. The total number of writhes for each animal, treated and control animals side-by-side, are counted over a 30-minute time interval. […] The P.Q.W. test is widely used as an indicator of potential analgesic activity in man, especially for non-narcotic substances.
(In general: Writhing tests count abdominal constrictions after an irritant is injected.)

A further data set is described as follows: Solubility in water. The class given is physicochemical.
[4] abbreviates: mouse, oral dose producing score of at least -1.
The mark [5] stands for this setting: mouse, phenyl-p-benzoquinone 2.5 mg/kg ip 30 min after dose, 30-minute count.

A word on the ED50: it is the midpoint of the dose-response relation. The term LD50 denotes the dose expected to kill half of the subjects tested. A low value points to greater toxicity.

Where a name gives a salt, the structure may show the parent alone.

With `CC(Cl)=CCN1CC[C@@H]2[C@@H](C1)c1cccc3c1N2c1ccccc1CC3` (racemic) [Example 1, (±)-trans-3-(3-chloro-2-butenyl)-1,2,3,4,4a,8,9,14a-octahydropyrido[4',3':2,3]indolo[1,7-ab][1]benzazepine], the ED50 with mice [1] (mouse, passive ptosis) is greater than 300 mg/kg; in the data set with mice [2] (setting [4]) it was greater than 300 mg/kg; with mice [3] (setting [5]), 86 mg/kg. Further, in the data set “in vivo”, the LD50 was greater than 300 mg/kg.

`CC(=O)CCN1CC[C@@H]2[C@@H](C1)c1cccc3c1N2c1ccccc1CC3` (racemic) [Example 6, (±)-4-(trans-1,2,3,4,4a,8,9,14a-octahydropyrido[4',3':2,3]indolo[1,7-ab][1]benzazepin-3-yl)-2-butanone]: the ED50 in the data set on mice [1] (mouse, passive ptosis) amounted to 7.1 mg/kg; with mice [2] (setting [4]), 8 mg/kg; with mice [3] (setting [5]) it was 1.25 mg/kg. Moreover, the LD50 in “in vivo” is greater than 324 mg/kg.

In the case of `CC(=O)CCCN1CC[C@@H]2[C@@H](C1)c1cccc3c1N2c1ccccc1CC3` (racemic) [Example 7, (±)-5-(trans-1,2,3,4,4a,8,9,14a-octahydropyrido[4',3':2,3]indolo[1,7-ab][1]benzazepin-3-yl)-2-pentanone], the ED50 with mice [1] (mouse, passive ptosis) amounted to 1.3 mg/kg; in the data set on mice [2] (setting [4]) it was 2.6 mg/kg; with mice [3] (setting [5]), 1.4 mg/kg. In addition, in the data set “in vivo”, the LD50 was greater than 324 mg/kg.

For the compound `O=C(CCN1CC[C@@H]2[C@@H](C1)c1cccc3c1N2c1ccccc1CC3)c1ccccc1` (racemic) [Example 8, (±)-3-(trans-1,2,3,4,4a,8,9,14a-octahydropyrido[4',3':2,3]indolo[1,7-ab][1]benzazepin-3-yl)propiophenone], the ED50 in the data set on mice [1] (mouse, passive ptosis) was determined as 20 mg/kg; in the data set with mice [2] (setting [4]), 200 mg/kg; in the data set with mice [3] (setting [5]) it was 26 mg/kg. In “in vivo”, this compound showed an LD50 greater than 324 mg/kg.

Turning to `CC(=O)CN1CC[C@@H]2[C@@H](C1)c1cccc3c1N2c1ccccc1CC3` (relative stereo) [Example 3, (±)-trans-3-acetonyl-1,2,3,4,4a,8,9,14a-octahydropyrido[4',3':2,3]indolo[1,7-ab][1]benzazepipine], the ED50 in the data set with mice [1] (mouse, passive ptosis) turned out to be 4 mg/kg; in the data set with mice [2] (setting [4]), 2 mg/kg; in the data set on mice [3] (setting [5]) it was 2 mg/kg. In addition, the LD50 in “in vivo” is greater than 300 mg/kg.

For `c1ccc2c(c1)CCc1cccc3c4c(n-2c13)CCNC4` [1,2,3,8,9-hexahydropyrido[4',3':2,3]=indolo[1,7ab][1]benzazepine hydrochloride], the solubility in water result in “Solubility in water” is reported as “only very slightly soluble in water”.

`CN(C)CCCN1c2ccccc2Sc2ccc(Cl)cc21` [chlorpromazine (HCl), chlorpromazine, reference compound]: the results for the ED50 in the data set with mice [1] (Mus musculus) and in the data set with mice [2] (Mus musculus) were 6 mg/kg and 5 mg/kg, respectively.

For the compound `COc1ccc2c3c1O[C@H]1[C@@H](O)C=C[C@H]4[C@@H](C2)N(C)CC[C@@]341` [codeine phosphate, reference compound], the ED50 with mice [3] (Mus musculus) was determined as 19 mg/kg.
